Reference: patent publication US20080279769A1, “Enzyme Inhibitor Imaging Agents” (priority 2004, published 2008)

Amino acid sequences for entries named in this document (tags omitted). Residues count along the entry.
UniProt P03956, 100-469 limits assumed: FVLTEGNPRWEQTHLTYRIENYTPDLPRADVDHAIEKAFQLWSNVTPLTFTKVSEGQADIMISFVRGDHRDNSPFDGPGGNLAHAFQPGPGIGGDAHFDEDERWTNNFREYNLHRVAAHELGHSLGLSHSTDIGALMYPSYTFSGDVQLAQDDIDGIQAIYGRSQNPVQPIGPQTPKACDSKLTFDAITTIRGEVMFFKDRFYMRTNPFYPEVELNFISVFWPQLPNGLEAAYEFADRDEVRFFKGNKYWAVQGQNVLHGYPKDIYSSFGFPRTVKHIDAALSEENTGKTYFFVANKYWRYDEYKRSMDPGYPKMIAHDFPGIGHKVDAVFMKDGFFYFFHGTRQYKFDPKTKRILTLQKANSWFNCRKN
UniProt P39900, 106-263 limits assumed: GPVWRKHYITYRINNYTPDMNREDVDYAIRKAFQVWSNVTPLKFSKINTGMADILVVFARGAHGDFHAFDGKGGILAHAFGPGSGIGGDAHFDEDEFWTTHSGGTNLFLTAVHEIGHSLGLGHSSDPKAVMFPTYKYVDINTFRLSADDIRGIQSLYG
UniProt P14780, 107-444 limits assumed: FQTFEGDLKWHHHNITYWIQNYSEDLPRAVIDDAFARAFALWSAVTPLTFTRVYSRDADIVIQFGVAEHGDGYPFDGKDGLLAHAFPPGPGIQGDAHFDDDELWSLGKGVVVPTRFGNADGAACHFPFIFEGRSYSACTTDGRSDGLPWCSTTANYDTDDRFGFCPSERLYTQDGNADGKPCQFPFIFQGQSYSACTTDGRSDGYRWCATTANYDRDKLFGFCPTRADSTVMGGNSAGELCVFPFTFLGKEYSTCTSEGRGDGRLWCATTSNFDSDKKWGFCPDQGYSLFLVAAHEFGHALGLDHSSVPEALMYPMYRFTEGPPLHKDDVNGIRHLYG
UniProt P22894, 101-467 limits assumed: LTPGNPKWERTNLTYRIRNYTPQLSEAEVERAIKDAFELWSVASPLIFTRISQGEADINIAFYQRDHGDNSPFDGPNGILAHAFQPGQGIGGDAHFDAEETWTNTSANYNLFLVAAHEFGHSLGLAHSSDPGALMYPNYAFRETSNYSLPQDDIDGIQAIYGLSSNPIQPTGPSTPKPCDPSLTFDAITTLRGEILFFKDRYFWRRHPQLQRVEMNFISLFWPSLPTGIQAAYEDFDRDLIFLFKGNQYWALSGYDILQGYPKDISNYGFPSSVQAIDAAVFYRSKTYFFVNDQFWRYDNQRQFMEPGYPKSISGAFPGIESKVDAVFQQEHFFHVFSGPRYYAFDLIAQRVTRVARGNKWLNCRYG
UniProt P08253, 110-446 limits assumed: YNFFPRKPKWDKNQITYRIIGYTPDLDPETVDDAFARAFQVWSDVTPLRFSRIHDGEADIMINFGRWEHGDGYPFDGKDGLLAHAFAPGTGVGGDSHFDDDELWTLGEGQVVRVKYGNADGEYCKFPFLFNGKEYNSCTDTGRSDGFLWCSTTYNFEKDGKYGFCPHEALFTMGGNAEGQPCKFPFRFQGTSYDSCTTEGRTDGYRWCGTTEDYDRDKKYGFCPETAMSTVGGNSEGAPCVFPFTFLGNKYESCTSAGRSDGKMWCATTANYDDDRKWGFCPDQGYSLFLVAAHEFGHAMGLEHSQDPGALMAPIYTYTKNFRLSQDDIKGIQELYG

Assays:
MMP-1 = MMP-1 (Homo sapiens, UniProt P03956); test: In vitro metalloproteinase inhibition assay (colorimetric, thiopeptolide substrate), MMP-1; details: read-out: MMP-1 [Ki]
MMP-12 = MMP-12 (Homo sapiens, UniProt P39900); test: In vitro metalloproteinase inhibition assay (Biomol MMP-12 colorimetric assay kit); details: read-out: MMP-12 (Ki)
MMP-9 = MMP-9 (Homo sapiens, UniProt P14780); test: In vitro metalloproteinase inhibition assay (Biomol MMP-9 colorimetric assay kit); format: biochemical; details: read-out: MMP-9 (Ki)
MMP-8 = MMP-8 (Homo sapiens, UniProt P22894); test: In vitro metalloproteinase inhibition assay (colorimetric, thiopeptolide substrate), MMP-8; details: read-out: MMP-8 (Ki)
MMP-2 = MMP-2 (Homo sapiens, UniProt P08253); test: In vitro metalloproteinase inhibition assay (Biomol MMP-2 colorimetric assay kit); format: biochemical; details: read-out: MMP-2 (Ki)

Row | SMILES | Ki (MMP-1) [nM] | Ki (MMP-12) [nM] | Ki (MMP-9) [nM] | Ki (MMP-8) [nM] | Ki (MMP-2) [nM]
1 | CC(C)C[C@H](CC(=O)N[C@@H](Cc1c[nH]c2ccccc12)C(=O)NCc1ccc(I)cc1)C(=O)NO | 0.48 | 0.14 | 0.13 | 1.13 | 0.26
2 | CNC(=O)[C@H](Cc1ccc(I)cc1)NC(=O)C[C@@H](CC(C)C)C(=O)NO | 8.83 | 4.18 | 0.23 | 0.57 | 0.42
